Experiments:
mu opioid receptor = mu opioid receptor (Cavia porcellus, UniProt A0ACM8Q262); assay: mu opioid receptor site binding ([3H]DAGO, brain homogenates); conditions: read-out: Ki Mu; guinea pig homogenate, tritiated DAGO, 150 minutes at 0° C.
kappa opioid receptor = kappa opioid receptor (Cavia porcellus, UniProt P41144); assay: kappa opioid receptor site binding ([3H]etorphine, brain homogenates, DADLE and DAGO added to saturate delta and mu); conditions: read-out: Ki Kappa; guinea pig brain homogenate, tritiated etorphine, 200 nM DADLE and 200 nM DAGO
mice [1] = assay: acetylcholine-induced writhing test; conditions: 10 mg/kg s.c.
kappa = conditions: P. V. Vanvoigtlander, et al., J. Pharmacol. Exp. Ther., 224:7-12 (1983); cited from earlier work
mice [2] = assay: hot plate test at 55° C.; conditions: hot plate at 55° C., 10 mg/kg s.c., compared with control

Protein sequences, listed by entry. Tags and fused reporters are not part of them. Lines headed by an entry give the natural chain unless they say otherwise; changes in a name come on top. Residues count along the entry.
UniProt A0ACM8Q262, 1-400: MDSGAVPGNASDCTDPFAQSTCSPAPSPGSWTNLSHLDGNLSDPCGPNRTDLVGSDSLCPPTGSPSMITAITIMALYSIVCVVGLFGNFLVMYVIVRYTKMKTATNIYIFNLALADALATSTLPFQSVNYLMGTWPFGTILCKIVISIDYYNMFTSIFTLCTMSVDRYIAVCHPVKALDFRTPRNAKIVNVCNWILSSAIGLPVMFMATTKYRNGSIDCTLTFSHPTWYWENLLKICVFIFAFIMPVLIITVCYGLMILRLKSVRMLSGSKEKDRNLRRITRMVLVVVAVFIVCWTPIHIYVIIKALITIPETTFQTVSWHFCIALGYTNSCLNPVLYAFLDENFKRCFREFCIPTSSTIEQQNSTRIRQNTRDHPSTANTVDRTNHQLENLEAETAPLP
UniProt P41144: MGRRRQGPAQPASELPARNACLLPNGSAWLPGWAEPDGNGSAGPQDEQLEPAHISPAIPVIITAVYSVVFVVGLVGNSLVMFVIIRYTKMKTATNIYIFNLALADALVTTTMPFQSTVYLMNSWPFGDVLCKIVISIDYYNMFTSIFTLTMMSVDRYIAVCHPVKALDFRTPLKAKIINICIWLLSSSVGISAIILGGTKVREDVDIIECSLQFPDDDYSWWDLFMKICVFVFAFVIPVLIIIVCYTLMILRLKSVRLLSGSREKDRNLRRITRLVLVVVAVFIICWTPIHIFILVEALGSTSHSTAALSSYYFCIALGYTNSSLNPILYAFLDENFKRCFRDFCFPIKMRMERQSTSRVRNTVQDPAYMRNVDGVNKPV

SMILES | Ki (mu opioid receptor) [nM] | Ki (kappa opioid receptor) [nM] | further results
C=CCN(C)[C@@H]1CCCC[C@H]1N(C)C(=O)Cc1cccc2sccc12 (racemic) | 210 | 100 | 
CC(C)=CCN(C)[C@@H]1CCCC[C@H]1N(C)C(=O)Cc1cccc2sccc12 (racemic) | 32.5 | 205 | 
CN(C(=O)CC1=CCc2ccccc21)[C@@H]1CCCC[C@H]1N1CCCC1 (racemic) | 10000 | 100 | 
CN(C(=O)CC1=Cc2ccccc2C1)[C@@H]1CCCC[C@H]1N1CCCC1 (racemic) |  | 10000 | 
CN(C(=O)Cc1ccc2scc(-c3ccccc3)c2c1)[C@@H]1CCCC[C@H]1N1CCCC1 (racemic) |  | 10000 | 
CN(C(=O)Cc1cccc2sccc12)[C@@H]1CCCC[C@H]1N1CCCCC1 (racemic) | 2410 | 245 | 
CN(C(=O)Cc1csc2ccccc12)[C@@H]1CCCC[C@H]1N1CCCC1 (racemic) | > 1000 | 48.5 | 
CN(CC1CC1)[C@@H]1CCCC[C@H]1N(C)C(=O)Cc1cccc2sccc12 (racemic) |  | 100 | 
CN[C@@H]1CCCC[C@H]1N(C)C(=O)Cc1cccc2sccc12 (racemic) | > 1000 |  | 
CN(C(=O)Cc1c[nH]c2ccccc12)[C@@H]1CCCC[C@H]1N1CCCC1 (relative stereo) | 2940 | 74.5 | 
CN(C(=O)Cc1c[nH]c2ccccc12)[C@@H]1CCCC[C@H]1N1CCCC1.Cl (relative stereo) |  |  | writhing in the acetylcholine-induced writhing test (mice [1]): abolition of writhing
CN(C(=O)Cc1ccc(Cl)c(Cl)c1)[C@@H]1CCCC[C@H]1N1CCCC1 (relative stereo) |  |  | kappa agonist activity (kappa): selective kappa agonist activity
CN(C(=O)Cc1ccc2c(c1)c1c(n2C)CCCC1)[C@@H]1CCCC[C@H]1N1CCCC1 (relative stereo) | 467 | 3970 | 
CN(C(=O)Cc1ccc2occ(-c3ccccc3)c2c1)[C@@H]1CCCC[C@H]1N1CCCC1 (relative stereo) | 10000 | 1000 | 
CN(C(=O)Cc1cccc2c(-c3cccs3)csc12)[C@@H]1CCCC[C@H]1N1CCCC1 (relative stereo) |  | 10000 | 
CN(C(=O)Cc1cccc2sccc12)[C@@H]1CCCC[C@H]1N1CCCC1 (relative stereo) | 408 | 3.73 | tolerance of heat on a hot plate (mice [2]): longer tolerance of heat; writhing in the acetylcholine-induced writhing test (mice [1]): abolition of writhing

— patent US4656182A, “Substituted trans-1,2-diaminocyclohexyl amide compounds” (dated 1987)
